These are literature values, as cited in patent US20260159497A1, “SOLID FORMS OF A COMPLEMENT FACTOR B INHIBITOR” (Novartis Pharma AG, priority 2022, published 2026).

The conditions of this data set: C3G patients; cited from earlier work.

B1: Eculizumab: C5 monoclonal antibody that has been approved for treatment of aHUS (antibody, chains of the INN, looked up)
heavy: QVQLVQSGAEVKKPGASVKVSCKASGYIFSNYWIQWVRQAPGQGLEWMGEILPGSGSTEYTENFKDRVTMTRDTSTSTVYMELSSLRSEDTAVYYCARYFFGSSPNWYFDVWGQGTLVTVSSASTKGPSVFPLAPCSRSTSESTAALGCLVKDYFPEPVTVSWNSGALTSGVHTFPAVLQSSGLYSLSSVVTVPSSNFGTQTYTCNVDHKPSNTKVDKTVERKCCVECPPCPAPPVAGPSVFLFPPKPKDTLMISRTPEVTCVVVDVSQEDPEVQFNWYVDGVEVHNAKTKPREEQFNSTYRVVSVLTVLHQDWLNGKEYKCKVSNKGLPSSIEKTISKAKGQPREPQVYTLPPSQEEMTKNQVSLTCLVKGFYPSDIAVEWESNGQPENNYKTTPPVLDSDGSFFLYSRLTVDKSRWQEGNVFSCSVMHEALHNHYTQKSLSLSLG
light: DIQMTQSPSSLSASVGDRVTITCGASENIYGALNWYQQKPGKAPKLLIYGATNLADGVPSRFSGSGSGTDFTLTISSLQPEDFATYYCQNVLNTPLTFGQGTKVEIKRTVAAPSVFIFPPSDEQLKSGTASVVCLLNNFYPREAKVQWKVDNALQSGNSQESVTEQDSKDSTYSLSSTLTLSKADYEKHKVYACEVTHQGLSSPVTKSFNRGEC
As to B1, the “improvement of disease when tested in C3G” value was “only a subset of patients who had higher level of C5b-9 (MAC) showed improvement of disease”.
